These are literature values, as cited in US20230256051A1, “MODIFIED KISSPEPTIN RECEPTOR AGONISTS FOR FATTY LIVER DISEASE” (priority 2020, published 2023).

By UniProt entry, the sequences of proteins in these tests, tags left out.
UniProt Q969F8, whole entry, species assumed: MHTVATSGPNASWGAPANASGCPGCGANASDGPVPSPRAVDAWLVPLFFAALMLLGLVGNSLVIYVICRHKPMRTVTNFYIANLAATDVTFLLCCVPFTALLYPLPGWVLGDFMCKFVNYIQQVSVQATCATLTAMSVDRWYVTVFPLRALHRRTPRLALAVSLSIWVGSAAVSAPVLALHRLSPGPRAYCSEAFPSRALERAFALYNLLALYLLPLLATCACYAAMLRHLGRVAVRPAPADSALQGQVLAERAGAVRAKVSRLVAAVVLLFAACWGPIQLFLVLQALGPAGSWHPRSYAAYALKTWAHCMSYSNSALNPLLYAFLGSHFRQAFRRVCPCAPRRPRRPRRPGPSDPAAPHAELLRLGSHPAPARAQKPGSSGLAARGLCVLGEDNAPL

This data set concerns the target KISS1R (Homo sapiens, UniProt Q969F8). On the set-up: expressed in transfected cells; host or cells: CHO (CHO-KISS1R), membrane preparations. As to conditions: CHO-KISS1R membrane preparations; means +/- SE; n = 3-5; read-out: IC50 against [125I]KP-54 binding to KISS1R; cited from earlier work.
On to YNWNSFGLR[dF]-NH2 [ANA21], for which the IC50 was 447 ± 173 nM.

With [dY]NWNSFGLRF-NH2 [ANA19], the IC50 is 3.6 ± 0.3 nM.

For the substance YNWNS [dF]GLRF-NH2 [ANA20], the IC50 is 253 ± 144 nM.
